Structures are written as SMILES. A value given as a limit tells only on which side of the number the result lay.

By UniProt entry, the sequences of proteins in these tests, tags left out.
UniProt O43614, whole entry: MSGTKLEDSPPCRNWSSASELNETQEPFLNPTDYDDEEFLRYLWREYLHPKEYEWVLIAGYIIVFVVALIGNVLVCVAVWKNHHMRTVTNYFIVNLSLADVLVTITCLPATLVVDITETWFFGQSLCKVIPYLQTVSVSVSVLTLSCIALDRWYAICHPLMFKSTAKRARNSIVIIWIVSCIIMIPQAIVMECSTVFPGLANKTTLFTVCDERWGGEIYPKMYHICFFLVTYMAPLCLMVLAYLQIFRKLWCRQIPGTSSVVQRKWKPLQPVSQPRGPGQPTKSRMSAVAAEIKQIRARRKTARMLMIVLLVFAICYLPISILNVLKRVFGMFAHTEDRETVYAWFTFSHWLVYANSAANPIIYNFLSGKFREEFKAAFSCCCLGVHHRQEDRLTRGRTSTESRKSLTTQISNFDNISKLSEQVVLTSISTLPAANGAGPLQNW

This note sets out measurements from patent US9440982B2 (Eolas Therapeutics, Inc., priority 2012, dated 2016).

One assay has as its target T1, OX2 (Homo sapiens, UniProt O43614).
T1 construct: expressed in transfected cells; host or cells: CHO (CHO-OX2, kept under selection antibiotic)
Put plainly: Orexin receptor cell-based functional assay, [Ca2+]i by FLIPR, CHO-OX2 cells. Conditions: CHO-OX2 cells, [Ca2+]i by FLIPR, antagonist dose-range 0.1 nM-10 μM, EC90 of OXA; read-out: OX2.
Regarding `Cc1nc(C(=O)N2CCCC(C)C2CNc2ncc(C(F)(F)F)cn2)c(-c2ccc(F)cc2)s1` (racemic) [Example A311, (+/−)-cis-(5-(4-Fluorophenyl)-2-methylthiazol-4-yl)(3-methyl-2-(((5-(trifluoromethyl)pyrimidin-2-yl)amino)methyl)piperidin-1-yl)methanone], the IC50 was found to be 3.1 µM.
For the molecule `C[C@@H]1CCCN(C(=O)c2c(F)cccc2-n2nccn2)[C@@H]1CNc1ccc(C(F)(F)F)cn1` [Example A258, (2-Fluoro-6-(2H-1,2,3-triazol-2-yl)phenyl)((2S,3R)-3-methyl-2-(((5-(trifluoromethyl)pyridin-2-yl)amino)methyl)piperidin-1-yl)methanone], the IC50 is greater than 5 µM.
Regarding `C[C@@H]1CCCN(C(=O)c2cc(C#N)ccc2-c2ncccn2)[C@@H]1CNc1ncc(C(F)(F)F)cn1` [Example A323, 3-((2S,3R)-3-Methyl-2-(((5-(trifluoromethyl)pyrimidin-2-yl)amino)methyl)piperidine-1-carbonyl)-4-(pyrimidin-2-yl)benzonitrile], the IC50 was greater than 5 µM.
As for `Cc1ccc(-c2ccccn2)c(C(=O)N2CCC[C@@H](C)[C@H]2CNc2ncc(C#N)cn2)c1` [Example A153, 2-((((2S,3R)-3-Methyl-1-(5-methyl-2-(pyridin-2-yl)benzoyl)piperidin-2-yl)methyl)amino)pyrimidine-5-carbonitrile], the IC50 was greater than 5 µM.
Turning to `Cc1ccc(-c2ccnn2C)c(C(=O)N2CCC[C@@H](C)[C@H]2CNc2nc3cc(Cl)ccc3o2)c1` [Example A50, ((2S,3R)-2-(((5-Chlorobenzo[d]oxazol-2-yl)amino)methyl)-3-methylpiperidin-1-yl)(5-methyl-2-(1-methyl-1H-pyrazol-5-yl)phenyl)methanone], the IC50 was greater than 5 µM.
Take `Cc1nc(C(=O)N2CCC[C@@H](C)[C@H]2CNc2ncc(Cl)cn2)c(-c2ccc(F)cc2)s1` [Example A41, ((2S,3R)-2-(((5-Chloropyrimidin-2-yl)amino)methyl)-3-methylpiperidin-1-yl)(5-(4-fluorophenyl)-2-methylthiazol-4-yl)methanone]: the IC50 is greater than 4 µM.
Turning to `Cc1ccc(-c2cccnn2)c(C(=O)N2CCC[C@@H](C)[C@H]2CNc2ncc(C(F)(F)F)cn2)c1` [Example A198, ((2S,3R)-3-Methyl-2-(((5-(trifluoromethyl)pyrimidin-2-yl)amino)methyl)piperidin-1-yl)(5-methyl-2-(pyridazin-3-yl)phenyl)methanone], the IC50 is greater than 5 µM.
In the case of `Cc1ccc(-n2nccn2)c(C(=O)N2CCC[C@@H](C)[C@H]2CNc2ccc(C(F)(F)F)nn2)n1` [Example A176, ((2S,3R)-3-Methyl-2-(((6-(trifluoromethyl)pyridazin-3-yl)amino)methyl)piperidin-1-yl)(6-methyl-3-(2H-1,2,3-triazol-2-yl)pyridin-2-yl)methanone], the IC50 was greater than 5 µM.
Same read-out and setting: for `C[C@@H]1CCCN(C(=O)c2c(F)cccc2-c2ncccn2)[C@@H]1CNc1ccc(C(F)(F)F)cn1` [Example A241, (2-Fluoro-6-(pyrimidin-2-yl)phenyl)((2S,3R)-3-methyl-2-(((5-(trifluoromethyl)pyridin-2-yl)amino)methyl)piperidin-1-yl)methanone] the value was greater than 5 µM; for `Cc1ccc(-c2ncccn2)c(C(=O)N2CCC[C@@H](C)[C@H]2CNc2ccc(Cl)cn2)c1` [Example A138, ((2S,3R)-2-(((5-Chloropyridin-2-yl)amino)methyl)-3-methylpiperidin-1-yl)(5-methyl-2-(pyrimidin-2-yl)phenyl)methanone], 3.4 µM.
Still for that read-out and setting: for `COc1ccc(-n2nccn2)c(C(=O)N2CCC[C@@H](C)[C@H]2CNc2ccc(C(F)(F)F)cn2)c1F` [Example A338, (2-Fluoro-3-methoxy-6-(2H-1,2,3-triazol-2-yl)phenyl)((2S,3R)-3-methyl-2-(((5-(trifluoromethyl)pyridin-2-yl)amino)methyl)piperidin-1-yl)methanone] the value was greater than 5 µM; for `C[C@@H]1CCCN(C(=O)c2c(F)cccc2-c2ncccn2)[C@@H]1CNc1ncc(Cl)cn1` [Example A239, ((2S,3R)-2-(((5-Chloropyrimidin-2-yl)amino)methyl)-3-methylpiperidin-1-yl)(2-fluoro-6-(pyrimidin-2-yl)phenyl)methanone], greater than 5 µM; for `Cc1nc(C(=O)N2CCC[C@@H](C)[C@H]2CNc2ccc(C(F)(F)F)cn2)c(-c2ccc(F)cc2)s1` [Example A85, (5-(4-Fluorophenyl)-2-methylthiazol-4-yl)((2S,3R)-3-methyl-2-(((5-(trifluoromethyl)pyridin-2-yl)amino)methyl)piperidin-1-yl)methanone], greater than 5 µM.
Consider `Cc1ccc(-n2nccn2)c(C(=O)N2CCC[C@@H](C)[C@H]2CNc2ncc3cc(C)ccc3n2)c1` [Example A220, ((2S,3R)-3-Methyl-2-(((6-methylquinazolin-2-yl)amino)methyl)piperidin-1-yl)(5-methyl-2-(2H-1,2,3-triazol-2-yl)phenyl)methanone], for which the IC50 was 2.5 µM.
The same measure, in the same setting: with `Cc1ccc(-c2cnn(C(C)C)c2)c(C(=O)N2CCC[C@@H](C)[C@H]2CNc2ccc(C(F)(F)F)cn2)c1` [Example A111, (2-(1-Isopropyl-1H-pyrazol-4-yl)-5-methylphenyl)((2S,3R)-3-methyl-2-(((5-(trifluoromethyl)pyridin-2-yl)amino)methyl)piperidin-1-yl)methanone] the figure was 0.86 µM; with `C[C@@H]1CCCN(C(=O)c2cc(F)ccc2-n2nccn2)[C@@H]1CNc1ccc(Cl)cn1` [Example A209, ((2S,3R)-2-(((5-Chloropyridin-2-yl)amino)methyl)-3-methylpiperidin-1-yl)(5-fluoro-2-(2H-1,2,3-triazol-2-yl)phenyl)methanone], greater than 5 µM.
The same measure, in the same setting: with `Cc1ccc(NC[C@@H]2[C@H](C)CCCN2C(=O)c2cc(C)ccc2-n2nccn2)nc1` [Example A48, ((2S,3R)-3-Methyl-2-(((5-methylpyridin-2-yl)amino)methyl)piperidin-1-yl)(5-methyl-2-(2H-1,2,3-triazol-2-yl)phenyl)methanone] the figure was greater than 5 µM; with `Cc1ccc(-n2nccn2)c(C(=O)N2CCC[C@@H](C)[C@H]2CNc2ncc(Cl)cn2)n1` [Example A177, ((2S,3R)-2-(((5-Chloropyrimidin-2-yl)amino)methyl)-3-methylpiperidin-1-yl)(6-methyl-3-(2H-1,2,3-triazol-2-yl)pyridin-2-yl)methanone], greater than 5 µM.
Turning to `Cc1ccc(NC[C@@H]2[C@H](C)CCCN2C(=O)c2nc(C)ccc2-n2nccn2)nc1` [Example A196, ((2S,3R)-3-Methyl-2-(((5-methylpyridin-2-yl)amino)methyl)piperidin-1-yl)(6-methyl-3-(2H-1,2,3-triazol-2-yl)pyridin-2-yl)methanone], the IC50 is greater than 5 µM.
As to `Cc1ccc(C(=O)N2CCC[C@@H](C)[C@H]2CNc2ccc(C(F)(F)F)cn2)c(-n2nccn2)c1` [Example A273, ((2S,3R)-3-Methyl-2-(((5-(trifluoromethyl)pyridin-2-yl)amino)methyl)piperidin-1-yl)(4-methyl-2-(2H-1,2,3-triazol-2-yl)phenyl)methanone], the IC50 was determined as 4.4 µM.
Consider `Cc1nc(C(=O)N2CCC[C@@H](C)[C@H]2CNc2ccc(C(F)(F)F)cn2)c(-c2cccc(F)c2)s1` [Example A109, (5-(3-Fluorophenyl)-2-methylthiazol-4-yl)((2S,3R)-3-methyl-2-(((5-(trifluoromethyl)pyridin-2-yl)amino)methyl)piperidin-1-yl)methanone], for which the IC50 was greater than 4 µM.
Consider `C[C@@H]1CCCN(C(=O)c2ccccc2-n2nccn2)[C@@H]1CNc1nc2ccccc2o1` [Example A218, (2-(2H-1,2,3-Triazol-2-yl)phenyl)((2S,3R)-2-((benzo[d]oxazol-2-ylamino)methyl)-3-methylpiperidin-1-yl)methanone], for which the IC50 is greater than 5 µM.
For the molecule `Cc1ccc(-c2cncs2)c(C(=O)N2CCC[C@@H](C)[C@H]2CNc2ccc(C(F)(F)F)cn2)c1` [Example A25, ((2S,3R)-3-Methyl-2-(((5-(trifluoromethyl)pyridin-2-yl)amino)methyl)piperidin-1-yl)(5-methyl-2-(thiazol-5-yl)phenyl)methanone], the IC50 was greater than 4 µM.

The assay is the same for the next values; noted with them: Table 2; CHO-OX2 cells, EC90 of OXA; read-out: IC50 Bioactivity OX2.
Regarding `Cc1ccc(-n2nccn2)c(C(=O)N2CCC[C@@H](C)[C@H]2CNc2ncc(Cl)cn2)c1` (racemic) [Example 98, rac-cis-(2-(((5-Chloropyrimidin-2-yl)amino)methyl)-3-methylpiperidin-1-yl)(5-methyl-2-(2H-1,2,3-triazol-2-yl)phenyl)methanone], the IC50 is greater than 10 µM.
Regarding `CCc1cnc(NC[C@@H]2[C@H](CC)CCCN2C(=O)c2nc(C)sc2-c2ccc(F)cc2)nc1` (racemic) [Example 78, rac-cis-(3-Ethyl-2-(((5-ethylpyrimidin-2-yl)amino)methyl)piperidin-1-yl)(5-(4-fluorophenyl)-2-methylthiazol-4-yl)methanone], the IC50 was greater than 10 µM.
For `Cc1nc(C(=O)N2CCC[C@@H](C)[C@H]2CNc2ccc(C#N)cn2)c(-c2ccc(F)cc2)s1` (racemic) [Example 91, rac-cis-6-(((1-(5-(4-Fluorophenyl)-2-methylthiazole-4-carbonyl)-3-methylpiperidin-2-yl)methyl)amino)nicotinonitrile], the IC50 was greater than 10 µM.
Consider `Cc1ccc(-c2ccnn2C)c(C(=O)N2CCC[C@@H](C)[C@H]2CNc2ccc(C(F)(F)F)cn2)c1` (racemic) [Example 108, rac-cis-(3-Methyl-2-(((5-(trifluoromethyl)pyridin-2-yl)amino)methyl)piperidin-1-yl)(5-methyl-2-(1-methyl-1H-pyrazol-5-yl)phenyl)methanone], for which the IC50 was greater than 10 µM.
For `Cc1nc(C(=O)N2CCC[C@@H](C)[C@H]2CNc2ccc(C(F)(F)F)cn2)c(-c2ccc(F)cc2)s1` (racemic) [Example 11, rac-cis-(5-(4-Fluorophenyl)-2-methylthiazol-4-yl)(3-methyl-2-(((5-(trifluoromethyl)pyridin-2-yl)amino)methyl)piperidin-1-yl)methanone], the IC50 was 4.9 µM.

Still in this assay, the particulars now being: Table 6; racemate vs enantiomers; read-out: OX2 IC50.
On to `Cc1nc(C(=O)N2CCC[C@@H](C)[C@H]2CNc2ccc(C(F)(F)F)cn2)c(-c2ccc(F)cc2)s1` [Example A85, (5-(4-Fluorophenyl)-2-methylthiazol-4-yl)((2S,3R)-3-methyl-2-(((5-(trifluoromethyl)pyridin-2-yl)amino)methyl)piperidin-1-yl)methanone], for which the IC50 is greater than 5 µM.
The same measure, in the same setting: for `Cc1nc(C(=O)N2CCC[C@@H](C)[C@H]2CNc2ccc(C(F)(F)F)cn2)c(-c2ccc(F)cc2)s1` (racemic) [Example 11, rac-cis-(5-(4-Fluorophenyl)-2-methylthiazol-4-yl)(3-methyl-2-(((5-(trifluoromethyl)pyridin-2-yl)amino)methyl)piperidin-1-yl)methanone] the value was 4.9 µM.
